# Earlier results, collected in patent US10308960B2, “Methods for treating cells containing fusion genes” (University of Pittsburgh—of the Commonwealth System of …, priority 2014, dated 2019).
# Test system: non-small cell lung cancer positive for EML4-ALK
# Details: advanced and metastatic non-small cell lung cancer positive for EML4-ALK; cited from earlier work
structure (smiles),measurement,value
C[C@@H](Oc1cc(-c2cnn(C3CCNCC3)c2)cnc1N)c1c(Cl)ccc(F)c1Cl [Crisotinib],shrinkage of tumor mass in most patients,at least 30%
